The target of the assay is purified human Factor XIa (Homo sapiens (Human), UniProt P03951). Description: Factor XIa Assay. It counts as biochemical. The following applies: purified human Factor XIa 40 pM, substrate Z-Gly-Pro-Arg-AFC, pH 7.4; read-out: FXIa IC50. The protocol:
The effectiveness of a compound of the present invention as an inhibitor of Coagulation Factor XIa can be determined using a relevant purified serine protease, and an appropriate synthetic substrate. The rate of hydrolysis of the chromogenic or fluorogenic substrate by the relevant serine protease was measured both in the absence and presence of compounds of the present invention. Assays were conducted at room temperature or at 37° C. […] A decrease in the rate of fluorescence change in the presence of inhibitor is indicative of enzyme inhibition. Such methods are known to one skilled in the art. […]
Factor XIa determinations were made in 50 mM HEPES buffer at pH 7.4 containing 150 mM NaCl, 5 mM CaCl2, and 0.1% PEG 8000 (polyethylene glycol; JT Baker or Fisher Scientific). Determinations were made using purified human Factor XIa at a final concentration of 40 pM (Sekisui Diagnostics) and he synthetic substrate, Z-Gly-Pro-Arg-AFC, TFA salt (Sigma #C0980) at a concentration of 100 µM.
Activity assays were performed by diluting a stock solution of substrate at least tenfold to a final concentration ≦0.1 Km into a solution containing enzyme or enzyme equilibrated with inhibitor. Times required to achieve equilibration between enzyme and inhibitor were determined in control experiments. Initial velocities of product formation in the absence (Vo) or presence of inhibitor (Vi) were measured. […]

Amino acid sequences for entries named in this document (tags omitted). Residues count along the entry.
UniProt P03951, 19-387 partner: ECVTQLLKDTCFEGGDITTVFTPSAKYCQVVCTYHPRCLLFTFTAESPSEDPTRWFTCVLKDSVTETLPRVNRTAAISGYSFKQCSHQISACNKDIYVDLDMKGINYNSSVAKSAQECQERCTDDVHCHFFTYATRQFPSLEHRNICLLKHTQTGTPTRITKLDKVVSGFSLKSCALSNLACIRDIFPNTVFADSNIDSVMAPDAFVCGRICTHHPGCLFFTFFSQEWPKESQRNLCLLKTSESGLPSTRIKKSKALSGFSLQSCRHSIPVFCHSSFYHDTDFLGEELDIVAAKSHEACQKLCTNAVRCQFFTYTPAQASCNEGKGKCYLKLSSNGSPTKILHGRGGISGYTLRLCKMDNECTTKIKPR
UniProt P03951, 388-625: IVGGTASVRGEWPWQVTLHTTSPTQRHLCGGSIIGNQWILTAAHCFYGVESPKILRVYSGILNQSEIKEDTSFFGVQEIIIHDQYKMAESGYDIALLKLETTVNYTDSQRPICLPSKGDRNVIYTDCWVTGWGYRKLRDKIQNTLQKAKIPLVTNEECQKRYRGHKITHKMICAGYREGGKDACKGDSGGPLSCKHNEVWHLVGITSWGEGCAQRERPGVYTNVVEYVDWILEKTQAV

2 molecules from patent US9783530B2, “Factor Xla inhibitors” (Merck Sharp & Dohme Corp., priority 2014, dated 2017) can be followed below.

What is called IC50 is the concentration that inhibits the measured activity by half.

Turning to `O=C(O)c1ccc(NC(=O)C(CC2CC2)c2ccc(-c3cc(Cl)ccc3-n3cc(C(F)F)nn3)c[n+]2[O-])cc1` (single isomer, unassigned) [Example 51, 4-{[2-(5-{5-chloro-2-[4-(difluoromethyl)-1H-1,2,3-triazol-1-yl]phenyl}-1-oxidopyridin-2-yl)-3-cyclopropylpropanoyl]amino}benzoic acid], the IC50 is 181 nM.
Turning to `O=C(O)c1ccc(NC(=O)C(CC2CC2)c2ccc(-c3cc(Cl)ccc3-n3cc(C(F)F)nn3)c[n+]2[O-])cc1` (single isomer, unassigned) [Example 52, 4-{[2-(5-{5-chloro-2-[4-(difluoromethyl)-1H-1,2,3-triazol-1-yl]phenyl}-1-oxidopyridin-2-yl)-3-cyclopropylpropanoyl]amino}benzoic acid], the half-inhibitory concentration (IC50) stood at 0.68 nM.
